Experimental data from ChEMBL document CHEMBL5696444 (Nat Commun, 2017).
pIC50: −log10 of the molar value.

Sequences of proteins named here, by UniProt entry; tags and fusion partners are left off. A change or cut given only in a name is not applied to a line headed by its entry.
UniProt P49761: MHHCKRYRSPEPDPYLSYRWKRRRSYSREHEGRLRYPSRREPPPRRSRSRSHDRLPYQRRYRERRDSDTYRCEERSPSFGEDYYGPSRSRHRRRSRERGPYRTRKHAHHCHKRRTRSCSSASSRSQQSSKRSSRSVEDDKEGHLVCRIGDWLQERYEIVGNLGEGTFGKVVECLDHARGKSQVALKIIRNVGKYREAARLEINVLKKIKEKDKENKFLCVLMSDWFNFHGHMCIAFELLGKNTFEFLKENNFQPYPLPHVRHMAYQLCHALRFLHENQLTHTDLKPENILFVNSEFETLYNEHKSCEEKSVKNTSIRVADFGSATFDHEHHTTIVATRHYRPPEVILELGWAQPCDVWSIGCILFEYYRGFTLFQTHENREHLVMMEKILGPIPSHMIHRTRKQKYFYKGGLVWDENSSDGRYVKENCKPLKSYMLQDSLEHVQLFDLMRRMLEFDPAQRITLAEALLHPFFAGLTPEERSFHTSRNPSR

Molecular target: Dual specificity protein kinase CLK3 (Homo sapiens, UniProt P49761)
Experiment: Inhibition of CLK3 (unknown origin) using ULight-CREBtide peptide as substrate incubated for 10 mins in presence of ATP incubated for 45 mins by LANCE Ultra kinase assay
Method in brief: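 Recombinant CLK3 at 300 ng ml−1 in HEPES buffer (pH 7.5) with magnesium acetate, DTT, BSA and Tween-20, using ULight-CREBtide as substrate. After a 10 min preincubation with compound, ATP was added for 45 min. The reaction was stopped with 10 mM EDTA, and signal was read by TR-FRET with a Eu-anti-phospho-CREB (Ser113) antibody.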

CCOC(=O)c1c(/C(C#N)=C\N)c2ccc(Cl)c(Cl)c2n1C
pIC50: < 6.00
